In paper PMC9865085, “Expression and Characterisation of the First Snail-Derived UDP-Gal: Glycoprotein-N-acetylgalactosamine β-1,3-Galactosyltransferase (T-Synthase) from Biomphalaria glabrata” (Molecules, 2023):

Biological target: T1, T-synthase (UDP-Gal: glycoprotein-N-acetylgalactosamine β-1,3-galactosyltransferase) from Biomphalaria glabrata (Biomphalaria glabrata, UniProt A0A2C9JXL4)
T1 construct: full-length 388 aa type II transmembrane protein, C-terminal His-tag, codon-optimised synthetic gene, expressed in Sf9 cells; lysate or captured on anti-His magnetic beads
T1 sequence (A0A2C9JXL4 1-388): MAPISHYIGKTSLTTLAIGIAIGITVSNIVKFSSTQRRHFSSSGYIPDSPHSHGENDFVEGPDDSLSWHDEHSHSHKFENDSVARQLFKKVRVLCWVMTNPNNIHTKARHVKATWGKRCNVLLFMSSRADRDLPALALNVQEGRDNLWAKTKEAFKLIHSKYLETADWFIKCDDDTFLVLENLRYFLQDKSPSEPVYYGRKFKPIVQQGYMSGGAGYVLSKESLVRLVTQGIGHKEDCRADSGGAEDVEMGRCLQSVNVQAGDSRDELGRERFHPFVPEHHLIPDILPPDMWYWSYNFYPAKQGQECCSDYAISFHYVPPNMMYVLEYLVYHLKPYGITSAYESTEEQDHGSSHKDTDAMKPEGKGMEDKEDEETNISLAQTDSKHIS
Test: galactosyl transfer to pNP-α-GalNAc, HPLC
Assay type: biochemical
Details: 5 nmol added to 20 μL assay; 200 μM UDP-Gal, 1 mM pNP-α-GalNAc, 20 mM MnCl2, 2 mM ATP, 50 mM MES pH 6.5, 37 °C, 2 h; bead-bound enzyme or lysate not stated for this test

O=c1ccn([C@@H]2O[C@H](COP(=O)(O)OP(=O)(O)O)[C@@H](O)[C@H]2O)c(=O)[nH]1 [UDP]
% inhibition at 5 nmol: ~ 50%
